Laboratory results published in paper PMC9887599, “Synthesis, Optical Properties, and Antiproliferative Evaluation of NBD-Triterpene Fluorescent Probes” (Journal of Natural Products, 2022).

Assay: Absorption and fluorescence spectroscopy (photophysical data)
Format: physicochemical
Details: DMSO, 25 °C

Q: With O=[N+]([O-])c1ccc(Cl)c2nonc12 as the compound, how does the “(λabs)max” value read?
A: The value was 471 nm.

Q: And the “ε (molar extinction coefficient)” value?
A: The value was 369 M^–1 cm^–1.

Q: What about the “(λem)max” value (excitation at 480 nm) of the same compound?
A: The value was 557 nm.
